According to paper PMC7132610 (Saudi Pharmaceutical Journal : SPJ, 2020):
Counter-ions that a name gives are not always drawn.

Sequences of proteins named here, by UniProt entry; tags and fusion partners are left off.
UniProt P27338, whole entry: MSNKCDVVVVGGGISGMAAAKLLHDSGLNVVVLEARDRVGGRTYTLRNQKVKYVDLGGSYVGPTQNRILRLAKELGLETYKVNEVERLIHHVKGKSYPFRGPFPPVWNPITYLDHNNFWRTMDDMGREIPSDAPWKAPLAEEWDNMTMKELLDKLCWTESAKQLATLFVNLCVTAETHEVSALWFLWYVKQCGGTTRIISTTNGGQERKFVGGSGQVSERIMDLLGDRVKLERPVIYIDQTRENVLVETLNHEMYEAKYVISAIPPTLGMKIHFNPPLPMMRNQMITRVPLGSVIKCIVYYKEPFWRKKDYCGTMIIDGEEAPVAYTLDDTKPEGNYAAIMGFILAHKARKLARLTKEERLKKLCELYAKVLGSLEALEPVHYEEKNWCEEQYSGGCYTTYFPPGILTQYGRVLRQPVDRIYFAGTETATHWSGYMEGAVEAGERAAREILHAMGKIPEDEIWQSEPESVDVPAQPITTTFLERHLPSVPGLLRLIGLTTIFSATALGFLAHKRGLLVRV

Tests used:
recombinant human MAO-B [1] = target: T1, recombinant human MAO-B (Homo sapiens, UniProt P27338); type: biochemical
recombinant human MAO-B [2] = target: T1, recombinant human MAO-B; type: biochemical; remark: listed apart in the source

SMILES: NNCCc1ccccc1 [Phenelzine, phenelzine sulfate, reference compound]
- nature of inhibition/binding with human MAO-B (dialysis) (recombinant human MAO-B [1]): irreversible inhibition/binding
- Monoamine oxidase-B Type of Inhibition (recombinant human MAO-B [2]): Mixed/Irreversible
